Values of other authors in patent US20110002851A1, “Cationic Colloidal Carriers for Delivery of Active Agents to the Blood-Brain Barrier in the Course of Neuroinflammatory Diseases” (MediGene AG, priority 2006, published 2011).

Test system: T cells
Details: by its effect on MMP-9

B1: Interferon-beta: interferon beta, used for treatment of relapsing-remitting MS (protein, UniProt P01574 22-187, looked up)
Interferon beta: MSYNLLGFLQRSSNFQCQKLLWQLNGRLEYCLKDRMNFDIPEEIKQLQQFQKEDAALTIYEMLQNIFAIFRQDSSSTGWNETIVENLLANVYHQINHLKTVLEEKLEKEDFTRGKLMSSLHLKRYYGRILHYLKAKEYSHCAWTIVRVEILRNFYFINRLTGYLRN
Migration of T cells: inhibited
